Laboratory results: paper PMC11878239, “Biochemical investigations using mass spectrometry to monitor JMJD6-catalysed hydroxylation of multi-lysine containing bromodomain-derived substrates” (RSC Chemical Biology, 2025)
“And” between values parts separate entries of the source, which are not always exact repeats. Identical values can stand only once.

How the values were obtained:
[1] = test system: JMJD5; design: method as in PMID 37292060; conditions: JMJD5 (0.15 μM), RSP6_128–148 as substrate; SPE-MS; 2OG or Fe(II); cited from earlier work
[2] = test system: FIH; design: method as in PMID 34759269; conditions: FIH (0.15 μM), HIF-1α789–822 as substrate; SPE-MS; cited from earlier work
[3] = test system: AspH315–758; design: method as in PMID 32107312; conditions: AspH315–758 (0.1 μM), hFX-CP101–119 as substrate; SPE-MS; 2OG or Fe(II); cited from earlier work
[4] = test system: BBOX; design: method as in PMID 25030770, PMID 24317009; conditions: BBOX (0.05 μM), γ-butyrobetaine as substrate; 1H NMR turnover assay; cited from earlier work
[5] = test system: KDM4C; design: method as in PMID 21859681; conditions: KDM4C (0.5 μM), ARTAQTARK(me3)STGGIA as substrate; SPE-MS; cited from earlier work
[6] = biological target: T1, full-length His6-JMJD6 (Homo sapiens, UniProt Q6NYC1); test: SPE-MS kinetics of JMJD6-catalysed lysyl hydroxylation (2OG, Fe(II), LAA, BRD-derived peptides); format: biochemical
T1 construct: An enzyme mixture (10 μL) containing full-length His6-JMJD6 (5 μM; final concentration: 0.05 μM); made in house; host or cells: Escherichia coli BL21 (DE3), pET-28a(+) plasmid
Experimental: Recombinant human JMJD6 (full length with a N-terminal His6-tag) was produced in Escherichia coli BL21 (DE3) cells using a pET-28a(+) plasmid and purified by standard Ni(II)-affinity size-exclusion chromatography, as previously reported.[40] […] Purified JMJD6 was stored at −78 °C; fresh aliquots were used for all JMJD6 assays.
Peptides were used as 10 mM stock solutions in DMSO (Sigma-Aldrich; BioUltra grade).
Assay samples were aspirated under vacuum for 0.4 s, then loaded onto a C4 solid phase extraction (SPE) cartridge. After loading, the C4 SPE cartridge was washed with 0.1%v/v aqueous formic acid to remove non-volatile buffer salts (5 s, 1.5 mL min^−1). The peptide was eluted from the SPE cartridge with 0.1%v/v aqueous formic acid in 75/25v/v acetonitrile/water into the mass spectrometer (5 s, 1.6 mL min^−1) and the SPE cartridge re-equilibrated with 0.1%v/v aqueous formic acid (1 s, 1.25 mL min^−1).
Peaks corresponding to the m/z +5 charge states of the BRD-derived substrate peptide and the hydroxylated product peptides were extracted from the ion chromatogram and integrated using RapidFire Integrator 4.3.0 (Agilent). Peak area data were exported into Microsoft Excel and used to calculate the relative abundance of the mono-hydroxylated product peptide using the following equation: […]
The concentration of the mono-hydroxylated product peptide was calculated by multiplying the %-fraction of the mono-hydroxylated product peptide by the initial concentration of the substrate peptide employed in the assay. Initial reaction velocities were then calculated and fitted to a Michaelis–Menten plot using nonlinear regression (GraphPad Prism 5).

O=C(O)CCC(=O)C(=O)O [2OG, 2-oxoglutarate]
k cat/Km [1]: 19300 ± 5800 M⁻¹ s⁻¹ | k cat/Km [2]: 47600 ± 12500 M⁻¹ s⁻¹ | k cat/Km [3]: 320000 ± 70000 M⁻¹ s⁻¹ | K^app m [4]: ~150 µM and 153 ± 44 µM | k cat/Km [4]: 10000 ± 3000 M⁻¹ s⁻¹ | k^app cat [4]: 1.6 ± 0.1 s⁻¹ | k cat/Km [5]: 28500 ± 1300 M⁻¹ s⁻¹ | apparent maximum velocity v^app max ([6]; 2OG or Fe(II) varied, BRD4_511–550 (2 μM) as substrate, 0.05 μM full-length His6-JMJD6, LAA 100 μM, 50 mM Tris pH 7.5, ambient temperature, ~20 min, SPE-MS, mean ± SD n = 3): 3.5 ± 0.1 nM/s | apparent turnover number k^app cat ([6]; 2OG or Fe(II) varied, BRD4_511–550 (2 μM) as substrate, 0.05 μM full-length His6-JMJD6, pH 7.5, ambient temperature, calculated from v^app max assuming active JMJD6 = total enzyme, n = 3): 0.070 ± 0.002 s⁻¹ | specificity constant kcat/Km ([6]; 2OG or Fe(II) varied, BRD4_511–550 (2 μM) as substrate, 0.05 μM full-length His6-JMJD6, pH 7.5, ambient temperature, n = 3): 3000 ± 400 M⁻¹ s⁻¹ | K^app m for 2OG: fold less than that of BBOX ([6]; JMJD6 versus isolated human BBOX (1H NMR turnover assays)): ~6 fold
